The assay has as its target E3 ubiquitin-protein ligase Mdm2 (Homo sapiens, UniProt Q00987). Description: Binding affinity to human MDM2 expressed in Escherichia coli expression system by using (FITC)-labeled p53 peptide based fluorescence polarization competitive assay. On the technique in general: Fluorescence polarisation rises when a labelled molecule tumbles more slowly, as on binding a larger partner.

Sequences of proteins named here, by UniProt entry; tags and fusion partners are left off.
UniProt Q00987, whole entry: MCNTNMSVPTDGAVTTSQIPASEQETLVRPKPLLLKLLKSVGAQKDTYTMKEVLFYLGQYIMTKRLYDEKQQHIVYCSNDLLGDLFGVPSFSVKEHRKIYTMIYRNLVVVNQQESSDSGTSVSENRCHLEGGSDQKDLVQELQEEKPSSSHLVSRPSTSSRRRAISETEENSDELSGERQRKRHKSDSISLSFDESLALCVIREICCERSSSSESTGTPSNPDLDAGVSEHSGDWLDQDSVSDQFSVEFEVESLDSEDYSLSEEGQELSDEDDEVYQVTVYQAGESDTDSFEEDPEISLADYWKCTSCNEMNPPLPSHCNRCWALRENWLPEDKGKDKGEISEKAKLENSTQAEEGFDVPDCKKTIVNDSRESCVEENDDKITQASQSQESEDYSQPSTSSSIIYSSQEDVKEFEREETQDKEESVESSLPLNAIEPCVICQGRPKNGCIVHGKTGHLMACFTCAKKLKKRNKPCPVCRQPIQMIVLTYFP

Some results are limits rather than exact numbers.

Broadly, the Kd is the constant that tells how readily two partners part at equilibrium. Read a high Kd as lower affinity. For `CC(=O)N[C@@H](CC(C)C)CN(CC(=O)N[C@@H](Cc1ccccc1)CN(CC(=O)N[C@@H](CCC(=O)O)CN(CC(=O)N[C@@H](C)CN(CC(=O)N[C@@H](CCCCN)CN(CC(=O)N[C@@H](CC(C)C)CN(CC(=O)N[C@@H](C)CN(CC(N)=O)S(C)(=O)=O)S(=O)(=O)CC(C)C)S(C)(=O)=O)S(C)(=O)=O)S(C)(=O)=O)S(C)(=O)=O)S(=O)(=O)c1ccc(Cl)cc1`, the Kd was above 5 µM.

Values taken from ChEMBL document CHEMBL4321882, “α-Helix-Mimicking Sulfono-γ-AApeptide Inhibitors for p53-MDM2/MDMX Protein-Protein Interactions” (J Med Chem, 2020).
